# Results taken from PubChem BioAssay AID647 (Vanderbilt High Throughput Screening Facility, 2007).
# Only a part is listed here, and it is no random draw. Calls of active or inactive are those of the source.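 The calls were made as follows: active = luminescence in either replicate above plate mean of wells with a partly effective reference agonist dose plus 3 SD; inactive = the rest.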
# Test: effects on beta-adrenoceptor cAMP reporter signal – cell-based, secondary assay 2, luminescence, counter-screen for D1 allosteric modulator project, confirmation (AID 647);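 also: isoproterenol raises cAMP through native beta-adrenoceptor Gs so signal bypasses D1; raw luminescence counts from the Envision reader with one value per duplicate well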
# Conditions: HEK293 D1 CRE-luciferase, isoproterenol EC30 counter-screen; at 10 µM; active compounds read high
row,SMILES,luminescence
1,Cc1nc2ccc3ccccc3c2s1.O=[N+]([O-])c1cc([N+](=O)[O-])c(O)c([N+](=O)[O-])c1,active: 3380
